We go through 26 compounds from PubChem BioAssay (NCI).

Test in all cases: NCI-60 one-dose screen, 48 h (100 = growth as untreated, 0 = no growth, -100 = all killed)
Details in all cases: 10 µM unless noted

In assay [1] the test system is NCI/ADR-RES ovarian.
The test system of assay [2] is T-47D breast.
The subject of assay [3] is BT-549 breast.
For assay [4], the system named is MDA-MB-435 melanoma.
Assay [5] concerns SW-620 colon.
For assay [6], the system named is MCF7 breast.
In assay [7] the test system is HCT-116 colon.
The test system of assay [8] is HCC-2998 colon.
For assay [9], the system named is KM12 colon.

Where “and” joins values, the source holds several entries; their conditions need not be identical. Identical values can stand only once. Only a part is listed here, and it is no random draw.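 Testing used 96-well plates and a 48-hour single-concentration exposure. Example: -40 means 40% of the starting cells died.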 Calls of active or inactive are those of the source. The calls were made as follows: active = growth percent below 10; inactive = the rest.

Take `[N-]=[N+]=NS(=O)(=O)c1ccc([N+](=O)[O-])cc1`: the growth is inactive: 103% in assay [1]; inactive: 110% in [2]; inactive: 104% in [3]; inactive: 95.9% in [4]; inactive: 101% in assay [5]; inactive: 98.9% in [6]. Besides, the growth was inactive: 102% in assay [7], inactive: 103% in assay [8] and inactive: 107% in [9].
As for `O=[N+]([O-])c1cc(Cl)cc([N+](=O)[O-])c1O`, the growth is inactive: 108% in [1]; inactive: 81.5% in assay [2]; inactive: 111% in assay [3]; inactive: 114% in [4]; inactive: 95.8% in assay [5]; inactive: 102% in [6]. Further, the growth in assay [7] was inactive: 98.1%; in [8], inactive: 98.7%; in assay [9], inactive: 111%.
Turning to `O=P(CCl)(Sc1ccc(Cl)cc1)N(CCCl)CCCl` (centres undefined), the growth in assay [1] is inactive: 100%; in [2] it was inactive: 86.1%; in [3] it was inactive: 92.2%; in [4], inactive: 96%; in assay [5], inactive: 92.2%; in assay [6], inactive: 95.5%. Further, the growth in assay [7] was inactive: 94.5%; in [8], inactive: 98.5%; in [9], inactive: 103%.
With `CCN(CCCl)/N=N/c1nc2nc[nH]c(=O)c2[nH]1`, the growth was inactive: 96.1% in [1]; inactive: 77.6% in [2]; inactive: 116% in assay [3]; inactive: 104% in assay [4]; inactive: 103% in [5]; inactive: 104% in assay [6]. The growth in assay [7] is inactive: 107%; in [8], inactive: 102%; in assay [9], inactive: 99.4%.
Take `Nc1ccc(N=Nc2ccc([As](=O)(O)O)cc2)cc1`: the growth is inactive: 108% in [1]; inactive: 103% in assay [2]; inactive: 102% in assay [3]; inactive: 107% in assay [4]; inactive: 106% in [5]; inactive: 102% in assay [6]. The growth in [7] is inactive: 104%; in assay [8], inactive: 110%; in assay [9], inactive: 103%.
Regarding `O=[N+]([O-])c1ccc(SSc2ccc([N+](=O)[O-])cc2[N+](=O)[O-])c([N+](=O)[O-])c1`, the growth in assay [1] is inactive: 98.6%; in assay [2], inactive: 88.4%; in assay [3] it was inactive: 102%; in assay [4] it was inactive: 106%; in [5] it was inactive: 29%; in assay [6], inactive: 95%. Besides, the growth in [7] was inactive: 13.9%; in assay [9], inactive: 106%.
For the compound `Cc1cc(C)cc(OP(=O)(Cl)Oc2cc(C)cc(C)c2)c1`, the growth in [1] was inactive: 99.4%; in [2], inactive: 106%; in assay [3], inactive: 111%; in [4] it was inactive: 100%; in [5], inactive: 103%; in assay [6], inactive: 108%. Further, the figures for the growth in [7], in assay [8] and in assay [9] were inactive: 109%, inactive: 102% and inactive: 109%, respectively.
In the case of `O=[N+]([O-])c1ccc([N+](=O)[O-])cc1`, the growth is inactive: 99.1% in [1]; inactive: 97.1% in assay [2]; inactive: 114% in assay [3]; inactive: 111% in assay [4]; inactive: 103% in [5]; inactive: 95.5% in assay [6]. For the same compound, the growth in assay [7] was inactive: 92%; in [8] it was inactive: 111%; in [9], inactive: 90.8%.
Turning to `CN(C)C(=O)NP(=O)(N(C)C)N(C)C`, the growth is inactive: 102% in [1]; inactive: 103% in [2]; inactive: 114% in [3]; inactive: 103% in [4]; inactive: 106% in assay [5]; inactive: 95.9% in [6]. Moreover, the growth was inactive: 105% in [7], inactive: 108% in assay [8] and inactive: 109% in [9].
As for `COc1ccc(C2N=C(NN=C(CCl)CCl)SP2(=O)Nc2ncccn2)c(OC)c1` (centres undefined), the growth in assay [1] was inactive: 97.8% [100 µM]; in assay [2], inactive: 92.3% [100 µM]; in assay [3], inactive: 102% [100 µM]; in assay [4] it was inactive: 99.1% [100 µM]; in assay [5] it was inactive: 104% [100 µM]; in assay [6] it was inactive: 90.7% [100 µM]. The growth in [7] is inactive: 97.1% [100 µM]; in assay [8] it was inactive: 101% [100 µM]; in assay [9], inactive: 99.4% [100 µM].
In the case of `Nc1ccc(CCCCOc2ccccc2)cc1`, the growth was inactive: 94.6% in assay [1]; inactive: 75.3% in assay [2]; inactive: 66% in assay [3]; inactive: 99.6% in assay [4]; inactive: 95.1% in [5]; inactive: 84.3% in assay [6]. Moreover, the values for the growth in [7], in [8] and in [9] were inactive: 86%, inactive: 98.5% and inactive: 85.9%, respectively.
Take `CCCC1OP(N)(=O)OCC1CC` (centres undefined): the growth is inactive: 115% and inactive: 103% in [1]; inactive: 106% and inactive: 97.1% in assay [2]; inactive: 106% and inactive: 95% in [3]; inactive: 123% and inactive: 101% in [4]; inactive: 106% and inactive: 88.3% in assay [5]; inactive: 111% and inactive: 99% in assay [6]. For the same compound, the growth in assay [7] is inactive: 104% and inactive: 85.7%; in assay [8] it was inactive: 109%; in [9], inactive: 109% and inactive: 96.4%.
`ClCCN1CCn2cnc3ncnc-3c21`: the growth in assay [1] was inactive: 112%; in [2] it was inactive: 96.1%; in [3], inactive: 94.4%; in assay [4], inactive: 105%; in [5], inactive: 105%; in assay [6] it was inactive: 97.6%. The growth in assay [7] was inactive: 109%; in assay [8], inactive: 107%; in assay [9], inactive: 102%.
As for `C/C(N)=N/P(=O)(Oc1ccccc1)Oc1ccccc1`, the growth is inactive: 105% in assay [1]; inactive: 96.5% in [2]; inactive: 89.5% in assay [3]; inactive: 108% in assay [4]; inactive: 107% in assay [5]; inactive: 95.7% in assay [6]. The growth in assay [7] is inactive: 96.8%; in assay [8], inactive: 99.1%; in [9], inactive: 103%.
Regarding `O=P1(Nc2ncccn2)OC(CCl)=NC1c1ccc(C2N=C(CCl)OP2(=O)Nc2ncccn2)cc1` (centres undefined), in assay [6], the growth was inactive: 95.5%.
Turning to `O=C(Nc1cc([As](=O)(O)O)ccc1O)c1ccccc1`, the growth in assay [1] was inactive: 101%; in assay [2] it was inactive: 106%; in [4], inactive: 113%; in assay [5], inactive: 106%; in [6], inactive: 107%; in [7], inactive: 97.5%. Moreover, the growth in assay [8] was inactive: 95.9%; in assay [9], inactive: 108%.
Regarding `CCOP(=O)(Nc1ccccc1)OCC`, the growth was inactive: 105% in assay [1]; inactive: 88.8% in assay [2]; inactive: 100% in assay [3]; inactive: 112% in [4]; inactive: 102% in assay [5]; inactive: 103% in [6]. In addition, the growth is inactive: 96.4% in assay [7] and inactive: 107% in [9].
Take `C=CCOP(O)OCC=C`: the growth in assay [1] is inactive: 115%; in [3] it was inactive: 112%; in assay [4] it was inactive: 104%; in assay [5], inactive: 101%; in [6] it was inactive: 96.5%; in assay [7] it was inactive: 104%. Further, the growth in [8] was inactive: 124%; in assay [9] it was inactive: 103%.
With `Cc1ccc(Sc2ccc([N+](=O)[O-])cc2[N+](=O)[O-])c([N+](=O)[O-])c1`, the growth in [1] was active: 4.11%; in assay [2] it was inactive: 58.7%; in [3], active: -23.6%; in assay [4], active: 1.07%; in assay [6] it was inactive: 16.1%; in assay [7], active: -13.9%. Also, the growth in assay [8] was active: -12.5%; in [9], inactive: 13.9%.
Consider `CCN(CCI)Cc1cccc2ccccc12`, for which the growth was inactive: 98.7% in assay [1]; inactive: 95.9% in [2]; inactive: 102% in [4]; inactive: 98.9% in assay [5]; inactive: 92.7% in [6]; inactive: 115% in [7]. In addition, the growth was inactive: 107% in assay [8] and inactive: 100% in assay [9].
Regarding `O=P(Nc1ncccn1)(N1CC1)N1CC1`, the growth is inactive: 95.8% in assay [1]; inactive: 101% in assay [2]; inactive: 91.9% in [4]; inactive: 99.7% in assay [5]; inactive: 95.5% in [6]; inactive: 97.3% in assay [7]. Further, the growth in assay [8] was inactive: 99.9%; in assay [9], inactive: 110%.
In the case of `ClP1(Cl)=NP(Cl)(Cl)=NP(Cl)(Cl)=N1`, the growth in assay [1] is inactive: 90.6%; in [2], inactive: 109%; in assay [3], inactive: 107%; in [4] it was inactive: 102%; in assay [5], inactive: 102%; in assay [6] it was inactive: 96.8%. Moreover, the growth in assay [7] was inactive: 102%; in assay [9], inactive: 112%.
`CCOC(=O)c1sc2ncnc(NCCCl)c2c1C`: the growth in assay [1] was inactive: 97.7%; in assay [2] it was inactive: 86.8%; in assay [3], inactive: 103%; in assay [4], inactive: 105%; in assay [5], inactive: 105%; in assay [6] it was inactive: 105%. In addition, the growth in [7] and in assay [9] was inactive: 104% each time.
Consider `ClP1Nc2cncnc2N1` (centres undefined), for which the growth in assay [1] was inactive: 115%; in assay [2], inactive: 105%; in assay [3], inactive: 116%; in assay [4] it was inactive: 109%; in [5], inactive: 123%; in [6] it was inactive: 102%. For the same compound, the growth in assay [7] was inactive: 120%; in assay [9], inactive: 98.4%.
For the compound `O=C1OCCN1P(=O)(Cl)N1CCOC1=O`, the growth was inactive: 98.5% in [1]; inactive: 105% in assay [2]; inactive: 110% in [3]; inactive: 102% in assay [4]; inactive: 102% in assay [5]; inactive: 94.9% in [6]. Moreover, the results for the growth in [7] and in [9] were inactive: 97.9% and inactive: 106%, respectively.
Turning to `COP(OC)c1ccc(C)cc1`, the growth was inactive: 108% in assay [1]; inactive: 118% in assay [2]; inactive: 106% in assay [3]; inactive: 107% in assay [4]; inactive: 93.1% in assay [5]; inactive: 97.6% in [6]. The growth in assay [7] was inactive: 95.8%; in assay [9], inactive: 95.1%.
